The record followed here is PubChem BioAssay AID463212 (Sanford-Burnham Center for Chemical Genomics, 2010).

Structures are written as SMILES. The list shows a part of the results, in another mix than the full data. Activity calls are given as the source filed them.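 Rule for the calls: active = growth inhibition of the mutant yeast at or above 50%; inactive = the rest.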

This assay in a line: growth inhibitors of tim23-1 mutant yeast, primary screen, luminescence, uHTS (AID 463212).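 Note: temperature-sensitive mutant grown at 25 °C; plate controls were DMSO-treated mutant yeast for no effect and medium wells lacking yeast for full effect.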 The conditions noted are these: S. cerevisiae tim23-1 growth, BacTiter-Glo luminescence, 24 h; at 20 µM; hits give high values.
Usually inhibition stands for the relative decrease from the control value, in per cent. `CCC(=O)N(c1ccccc1)C1(COC)CCN(CCc2cccs2)CC1`: the inhibition was inactive: 11.9%. Consider `CCC(=O)N(c1ccccc1)C1(COC)CCN(CCn2nnn(CC)c2=O)CC1`, for which the inhibition was inactive: -4.04%.
